# Experimental data from patent US10323028B2, “1,3,4-thiadiazole compounds and their use in treating cancer” (AstraZeneca AB, priority 2015, dated 2019).
# Sequences of proteins named here, by UniProt entry; tags and fusion partners are left off. Residues count along the entry.
# UniProt O94925, 73-669: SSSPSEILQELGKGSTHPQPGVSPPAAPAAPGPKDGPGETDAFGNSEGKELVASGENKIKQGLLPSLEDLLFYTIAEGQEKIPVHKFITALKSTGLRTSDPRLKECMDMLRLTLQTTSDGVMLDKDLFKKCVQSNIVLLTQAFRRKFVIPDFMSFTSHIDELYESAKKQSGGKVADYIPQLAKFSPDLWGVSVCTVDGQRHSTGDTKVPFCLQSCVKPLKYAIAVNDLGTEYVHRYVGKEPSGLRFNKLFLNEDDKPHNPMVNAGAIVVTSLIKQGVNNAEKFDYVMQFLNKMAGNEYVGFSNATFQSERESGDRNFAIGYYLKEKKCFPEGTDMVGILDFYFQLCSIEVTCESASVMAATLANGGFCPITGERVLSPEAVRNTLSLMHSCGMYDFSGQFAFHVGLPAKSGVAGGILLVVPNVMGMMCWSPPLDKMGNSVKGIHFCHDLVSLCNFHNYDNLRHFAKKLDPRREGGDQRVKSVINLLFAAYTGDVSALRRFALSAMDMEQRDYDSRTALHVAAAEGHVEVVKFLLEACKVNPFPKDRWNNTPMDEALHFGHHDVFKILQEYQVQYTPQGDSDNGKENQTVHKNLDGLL
# UniProt O94925, 63-669: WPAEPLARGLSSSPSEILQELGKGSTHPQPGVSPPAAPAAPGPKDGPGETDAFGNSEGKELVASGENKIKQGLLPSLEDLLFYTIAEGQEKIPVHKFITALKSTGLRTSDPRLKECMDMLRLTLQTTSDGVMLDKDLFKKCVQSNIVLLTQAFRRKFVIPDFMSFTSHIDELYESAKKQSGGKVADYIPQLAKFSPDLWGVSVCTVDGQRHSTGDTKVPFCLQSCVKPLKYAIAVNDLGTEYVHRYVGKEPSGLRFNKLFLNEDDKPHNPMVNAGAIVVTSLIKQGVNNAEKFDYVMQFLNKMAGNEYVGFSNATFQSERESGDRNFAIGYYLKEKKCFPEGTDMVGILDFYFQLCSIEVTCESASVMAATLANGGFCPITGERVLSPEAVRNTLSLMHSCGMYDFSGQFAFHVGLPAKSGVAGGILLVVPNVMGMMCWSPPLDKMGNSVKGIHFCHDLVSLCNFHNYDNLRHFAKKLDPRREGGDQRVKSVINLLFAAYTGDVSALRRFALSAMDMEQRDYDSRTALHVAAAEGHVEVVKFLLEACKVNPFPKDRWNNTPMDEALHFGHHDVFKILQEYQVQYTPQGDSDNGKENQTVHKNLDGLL
# Tests used:
# [1] = biological target: cellular GLS activity in PC3 cells (Homo sapiens (Human), UniProt O94925); experiment: GLS Cell Potency Assay (PC3 coupled assay measuring cellular glutamate depletion); type: cell-based; conditions: PC3 cells, 6 h incubation, glutamate depletion; read-out: Assay b) GLS cell MOA Mean IC50
# Source text: (§1) The following assays were used to measure the effects of the compounds described herein: a) GLS Enzyme Potency Assay; b) GLS Cell Potency Assay; c) GLS Cell Proliferation Assay. During the description of the assays, generally: • i. The following abbreviations have been used: CO2=Carbon dioxide; DMEM=Dulbecco's Modified Eagle Medium; DMSO=Dimethyl sulphoxide; EDTA=Ethylenediaminetetraacetic acid; EGTA=Ethylene glycol tetraacetic acid; FCS=Foetal calf serum; h=Hour(s); NBS=Non-binding surface; SDS=Sodium dodecyl sulphate; TRIS=Tris(Hydroxymethyl)aminomethane. • ii. IC50 values were calculated using a smart fitting model in Genedata.
# Assay b): GLS Cell Potency Assay
# Compounds were assessed for their potential to inhibit cellular GLS activity by use of a PC3 coupled assay measuring cellular glutamate depletion. […] DMSO concentration was maintained at 0.3% by back filling with DMSO solution. PC3 cells were grown in phenol free DMEM, 10% dialyzed FCS, 2 mM glutamine and following dispersal by trypsinisation were plated at 5.6×10^3 cells per well in 40 μl of growth medium directly into the 384 well assay plates containing dispensed compound. After incubation for 6 h at 37° C., 5% CO2 growth media was aspirated and cells lysed in 15 μl of buffer containing 10 mM TRIS pH7.4, 100 mM NaCl, 1 mM EDTA, 1 mM EGTA, 1 mM NaF, 20 mM Na4P2O7, 2 mM Na3VO4, 1% Triton X-100, 10% glycerol, 0.1% SDS and 0.5% deoxycholate.
# GLS1 = GLS1 (Homo sapiens (Human), UniProt O94925); experiment: GLS Enzyme Potency Assay (Glutamate Oxidase/AmplexRed coupled assay); type: biochemical; conditions: 6His tagged GLS protein (amino acids 63-669), recombinant; read-out: Assay a) enz IC50
# Source text: as §1
# Assay a): GLS Enzyme Potency Assay
# A Glutamate Oxidase/AmplexRed coupled assay was used to measure the ability of compounds to bind to and inhibit the activity of GLS1 in vitro. […] GLS1 was diluted to 2× working concentration and incubated at room temperature to allow the tetrameric/dimeric forms to reach steady state. Assay measurements were performed in buffer comprising 50 mM TRIS pH 7.8, 100 mM NaPO4, pH 7.8, 0.001% v/v Tween20. Purified recombinant GLS1 protein was diluted in assay buffer to 12 nM and pre-incubated at room temperature for 30 minutes. […] DMSO concentration was maintained at 2% by back filling with DMSO solution. 3 μL of diluted GLS1 protein (12 nM) was then dispensed into each well using a BioRaptr automated dispenser (Beckman-Coulter) and incubated for 15 minutes at room temperature. 3 μL of 100 mM glutamine diluted in assay buffer was then added and the reaction incubated at room temperature for 60 minutes. […] An artefact version of the assay where the 6His tagged GLS protein and glutamine were replaced with assay buffer was also used to rule out non specific effects on the assay components.
SMILES,IC50 [1] [nM],IC50 (GLS1) [nM]
"COC[C@H](C(=O)Nc1nnc(N[C@@H]2CCN(c3cccnn3)C2)s1)c1cccc(OC)c1 (single isomer, unassigned) [5(b)]",18.1,
"COC1CN(c2cccc([C@H](OC)C(=O)Nc3nnc(N[C@@H]4CCN(c5ccc(C)nn5)C4)s3)c2)C1 (single isomer, unassigned) [12(b)]",83.6,
"COC[C@H](C(=O)Nc1nnc(N[C@@H]2CCN(c3cccnn3)C2)s1)c1cccc(OC)c1 (single isomer, unassigned) [Example 5(a)]",1.22,28.8
"COC1CN(c2cccc([C@H](OC)C(=O)Nc3nnc(N[C@@H]4CCN(c5ccc(F)nn5)C4)s3)c2)C1 (single isomer, unassigned) [9(b)]",36.4,
"CO[C@H](C(=O)Nc1nnc(N[C@@H]2CCN(c3cccnn3)C2)s1)c1ccc(F)c(OC(F)(F)F)c1 (single isomer, unassigned) [Example 20(a)]",2.07,69.3
"COC1CN(c2cccc([C@H](OC)C(=O)Nc3nnc(N[C@@H]4CCN(c5ccc(C)nn5)C4)s3)c2)C1 (single isomer, unassigned) [Example 12(a)]",1.93,43.8
"CCO[C@H](C(=O)Nc1nnc(N[C@@H]2CCN(c3cccnn3)C2)s1)c1cccc(OC(F)F)c1 (single isomer, unassigned) [Example 17(a)]",,50.4
"CO[C@H](C(=O)Nc1nnc(N[C@@H]2CCN(c3cccnn3)C2)s1)c1cccc(N2CC(F)(F)C2)c1 (single isomer, unassigned) [2(b)]",4.11,
"CCO[C@H](C(=O)Nc1nnc(N[C@@H]2CCN(c3cccnn3)C2)s1)c1cccc(OC(F)F)c1 (single isomer, unassigned) [17(b)]",7.11,
"CCO[C@H](C(=O)Nc1nnc(N[C@@H]2CCN(c3cccnn3)C2)s1)c1cc(OC)cc(OC)c1 (single isomer, unassigned) [Example 6(a)]",,28
"CO[C@H](C(=O)Nc1nnc(N[C@@H]2CCN(c3cccnn3)C2)s1)c1ccc(F)c(OC(F)(F)F)c1 (single isomer, unassigned) [20(b)]",0.841,
"CCO[C@H](C(=O)Nc1nnc(N[C@@H]2CCN(c3cccnn3)C2)s1)c1cccc(OC(F)(F)F)c1 (single isomer, unassigned) [19(b)]",3.07,
"CO[C@H](C(=O)Nc1nnc(N[C@@H]2CCN(c3cccnn3)C2)s1)c1cccc(N2CC(F)(F)C2)c1 (single isomer, unassigned) [Example 2(a)]",0.245,87.2
"COC1CN(c2cccc([C@H](OC)C(=O)Nc3nnc(N[C@@H]4CCN(c5ccc(F)nn5)C4)s3)c2)C1 (single isomer, unassigned) [Example 9(a)]",1.02,59.1
"CCO[C@H](C(=O)Nc1nnc(N[C@@H]2CCN(c3cccnn3)C2)s1)c1cccc(OC(F)(F)F)c1 (single isomer, unassigned) [Example 19(a)]",0.473,40.1
